AlphaSeq binding of Ab-14 heavy chain variants to a spike HR2 peptide

Values reported by Li et al. 2023, doi:10.1038/s41467-023-39022-2 (FLAb copy).

The target is the same throughout: PDVDLGDISGINAS, from the HR2 region of SARS-CoV-2 spike.

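The starting antibody came from a phage panning campaign against this peptide. The variants were designed computationally from a first round of random CDR variants and then made and measured. Their group label is 14H_En_HC (En: ensemble of fine-tuned language models; HC: hill climbing; a sequence that several methods proposed may carry one label only). In AlphaSeq, yeast of one mating type display the scFv and yeast of the other type display the target. Pairs that bind mate more often; barcode pairs of the diploids are counted by sequencing. The ratio of observed to expected reads was calibrated, replicate by replicate, on BCL2-family standards whose Kd was known from biolayer interferometry. Mating was done six times.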

Parent scFv Ab-14: VH joined to VL by the linker GGGGSGGGGSGGGGS. Changes lie in the heavy chain CDRs alone.
VH: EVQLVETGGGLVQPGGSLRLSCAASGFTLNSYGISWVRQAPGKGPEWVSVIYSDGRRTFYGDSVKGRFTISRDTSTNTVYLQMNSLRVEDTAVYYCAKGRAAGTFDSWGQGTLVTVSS
VL: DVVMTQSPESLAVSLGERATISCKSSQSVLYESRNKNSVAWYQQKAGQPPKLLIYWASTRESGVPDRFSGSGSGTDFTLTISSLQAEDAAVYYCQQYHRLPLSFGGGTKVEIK

Variants are written as CDR1, CDR2 and CDR3 of the heavy chain (limits as in the source). Parent: GFTLNSYGIS, VIYSDGRRTFYGDSVK, GRAAGTFDS. Scale: log10 of Kd in nM, estimated from mating counts; low values are strong binders. A mean of the replicates is given; it leaves out those without a signal. "nd" marks a missing value. The strain was present, yet no cells mated with the target were sequenced in that replicate, which points to weak or no binding. The range of this assay differs from that of the first round, and the authors advise against merging the two. Nonspecific signal, from three strains lacking the peptide, appeared in 1% of pairings of all heavy chain designs, centred on 2.08 (5% of these signals below 0.84); values are not corrected for it. Also given: how often the same scFv was detected with the empty control strains, with their mean in brackets. In the paper, a design with two or fewer of six values counts as a poor binder.

CDR-H1 | CDR-H2 | CDR-H3 | log10 Kd, replicates | log10 Kd (nM), mean | signal with controls
GFDLNEYGIS | VIYADGVRTAYADSVK | GEAAGTFDS | -0.35 -0.50 -0.20 -0.46 -0.23 0.14 | -0.27 | 0 of 18
GFDLNEYGIS | VIYADGKRTFYSDSVK | GNEAGTFDV | -0.01 -0.22 0.00 -0.16 -0.30 -0.29 | -0.16 | 0 of 18
GFDLNEYGIS | VIYADGRRTSYIDSVK | GETAGTFDV | -0.13 0.08 0.05 -0.14 -0.33 0.19 | -0.05 | 0 of 18
GFDLNEYGIS | VIYADGKRTFYSDSVK | GNLAGTFDV | -0.48 -0.67 -0.49 -0.78 -0.65 -0.20 | -0.55 | 0 of 18
GFDLNEYGIS | VIYADGRRTQYIDSVK | GNQAGTFDT | 0.30 -0.07 -0.16 -0.38 0.04 -0.02 | -0.05 | 0 of 18
GFDLDEYGIS | VIYADGRRTFYADSVK | GELAGTFFL | 1.74 0.24 0.18 -0.34 0.01 0.23 | 0.34 | 0 of 18
GFDLDEYGIS | VIYADGRRTFYKDSVK | GQNAGTFDM | -0.60 -0.46 -0.71 -0.82 -0.32 -0.53 | -0.57 | 1 of 18 (4.11)
GFDLNEYGIS | VIYADGVRTVYSDSVK | GNVAGTFDS | -0.67 -0.57 -1.23 0.06 0.01 -0.75 | -0.52 | 1 of 18 (-0.23)
GFDLNEYGIS | VIYADGRRTFYADSVK | GNLAGTFNV | -0.96 -1.10 -1.02 -1.19 -1.22 -0.90 | -1.07 | 0 of 18
GFDLNEYGIS | VIYADGMRTFYSDSVK | GQLAGTFDF | -0.29 -0.62 -0.90 -0.49 -0.72 -0.67 | -0.61 | 0 of 18
GFNLNEYGIS | VIYADGMRTFYADSVK | GQVAGTFDM | -0.51 -0.63 -0.24 -0.41 -0.56 -0.59 | -0.49 | 0 of 18
GFDLNEYGIS | VIYADGRRTAYSDSVK | GEAAGFFDT | nd nd 2.63 nd nd nd | 2.63 | 0 of 18
GFNLDEYGIS | VIYADGRRTFYADSVK | GTLAGTFDA | -0.73 -1.11 -0.77 -1.52 -1.47 -0.85 | -1.08 | 0 of 18
GFDLNEYGIS | VIYADGRRTFYIDSVK | GEVAGTFDA | 0.04 -0.02 -0.32 -0.36 -0.33 0.16 | -0.14 | 1 of 18 (2.73)
GFDLNEYGIS | VIYADGVRTFYVDSVK | GETAGTFDF | -0.50 -0.12 0.21 -0.48 -0.34 0.20 | -0.17 | 0 of 18
GFDLNEYGIS | VIYADGRRTFYADSVK | GQAAGTFVL | 0.65 nd 0.32 -0.09 nd 2.07 | 0.74 | 0 of 18
GFTLDEYGIS | VIYADGKRTFYTDSVK | GGNAGTFDV | -0.06 -0.16 -0.21 -0.17 -0.31 -0.33 | -0.21 | 0 of 18
GFDLNEYGIS | VIYADGRRTAYIDSVK | GHAAGTFDV | 0.32 -0.51 -0.22 -0.35 -0.34 -0.26 | -0.23 | 0 of 18
GFDLNEYGIS | VIYADGRRTFYIDSVK | GTNAGTFDE | -0.27 -0.37 0.02 0.09 -0.39 -0.14 | -0.18 | 0 of 18
GFDLDEYGIS | VIYADGRRTFYADSVK | GQVAGTFDV | -0.69 -0.29 -0.82 -0.47 -0.95 -0.83 | -0.67 | 0 of 18
GFDLNEYGIS | VIYADGRRTFYADSVK | GQNAGTFDL | 0.75 0.82 0.41 0.42 0.69 0.66 | 0.62 | 2 of 18 (2.73)
GFDLNEYGIS | VIYADGMRTFYADSVK | GSEAGTFNM | -0.33 -0.53 -0.70 -0.59 -0.62 -0.42 | -0.53 | 0 of 18
GFDLNEYGIS | VIYADGRRTFYTDSVK | GTHAGTFDV | -0.42 -0.46 -0.58 -0.65 -0.64 -0.17 | -0.49 | 0 of 18
GFDLNEYGIS | VIYADGMRTFYADSVK | GEIAGTFKF | -0.50 -0.11 0.22 -1.22 -0.05 0.33 | -0.22 | 0 of 18
GFDLNEYGIS | VIYADGRRTAYVDSVK | GEQAGTFDV | -0.19 -0.54 -0.57 -0.68 -0.41 -0.24 | -0.44 | 0 of 18
GFDLNEYGIS | VIYADGRRTSYVDSVK | GEAAGTFNV | -0.15 -0.44 -0.28 -0.74 -0.52 -0.77 | -0.49 | 0 of 18
GFDLNEYGIS | VIYADGRRTFYADSVK | GNIAGTFDS | nd nd nd -1.07 0.01 -0.90 | -0.65 | 0 of 18

Repeated from above, the 3 best binders with a signal in all replicates:

CDR-H1 | CDR-H2 | CDR-H3 | log10 Kd, replicates | log10 Kd (nM), mean | signal with controls
GFNLDEYGIS | VIYADGRRTFYADSVK | GTLAGTFDA | -0.73 -1.11 -0.77 -1.52 -1.47 -0.85 | -1.08 | 0 of 18
GFDLNEYGIS | VIYADGRRTFYADSVK | GNLAGTFNV | -0.96 -1.10 -1.02 -1.19 -1.22 -0.90 | -1.07 | 0 of 18
GFDLDEYGIS | VIYADGRRTFYADSVK | GQVAGTFDV | -0.69 -0.29 -0.82 -0.47 -0.95 -0.83 | -0.67 | 0 of 18